Source: PubChem BioAssay (Broad Institute)
UUG fidelity: yeast start codon fidelity modulation; activity score, % at 18.7 µM; actives 0.13% (n = 350,000); S. cerevisiae UUG-firefly luciferase reporter, luminescence/redox ratio; AID 602363;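 active means replicate mean at a twofold rise or more, about +100% in these data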;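 further: firefly luciferase made from a UUG start codon reports start codon fidelity; reporter light over untreated wells divided by growth signal over untreated wells; some hits fall short of that in this replicate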
esBAF inh: Bmi1 luciferase reporter increase in mESCs, primary screen, esBAF inhibitor project, mouse ES cells, Bmi1 luciferase knock-in, single point; reporter increase, % at 12.5 µM; actives 2% (n = 350,000); 24 h; 100% = twice the neutral-well signal; in the data active = activation above about 40%; inconclusive = no clear call, values can overlap the other calls;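 note: 0% = median of the plate's neutral control wells and 100% = double that signal; a rise in the Bmi1 reporter signal indicates esBAF inhibition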
Wnt bcat act: Wnt/beta-catenin pathway activators, primary screen, cell-based, plate reader, single point. Wnt/beta-catenin reporter cell assay, activator. activation, % at 9.35 µM. actives 1.2% (n = 300,000). AID 743398, 2014; in the data active = activation above about 30%, passing the limit was not always enough; inconclusive = no clear call, values can overlap the other calls;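 note: 0% = neutral control wells and 100% = positive control wells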
MITF act: activators of MITF-driven TRPM1 promoter reporter, primary screen, cell-based, SK-MEL-5, luciferase, single point; actives 0.75% (n = 300,000); SK-MEL-5 TRPM1-promoter luciferase, 24 h; % of positive control, neutral wells = 0; activation, % at 12.5 µM;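 active = mean activation of at least 80% with every replicate also reaching 80%; inconclusive = mean reaches 80% but some replicate falls short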;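 note: 0% = neutral control wells and 100% = parthenolide positive control wells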
miR122 inh: miR-122 Renilla sensor signal increase in Huh7, primary screen, miR-122 inhibitor project, cell-based, single point, plate reader. AID 602342, 2012. activation (reporter increase), % at 12.5 µM. Huh7 miR-122 Renilla luciferase sensor, 48 h; neutral wells = 0, positive control = 100. actives 0.3% (n = 340,000);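 active = mean replicate activation score at least 90 and every replicate individually at or above 90; inconclusive = only one of the two criteria met; inactive = neither criterion met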;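 note: higher luciferase means less miR-122 activity so hits act as miR-122 inhibitors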
PglD DTNB: C. jejuni PglD acetyltransferase inhibitors, primary screen, biochemical, DTNB colorimetric, single point; UDP-N-acetylbacillosamine N-acetyltransferase PglD (Campylobacter jejuni); inhibition, % at 12.5 µM; actives 0.098% (n = 360,000); AID 602405, 2012; purified PglD enzyme, DTNB colorimetric CoA detection; in the data active = inhibition above about 16%, passing the limit was not always enough; inconclusive = no clear call, values can overlap the other calls
Starred values were filed as active, the others as inactive; ? = inconclusive; nt = no result; ! = not confirmed by another sample; [ ] = remark or other dose. The list is not random: actives were taken first. Their share in the collection is about 2.8%.

compound	UUG fidelity	esBAF inh	Wnt bcat act	MITF act	miR122 inh	PglD DTNB
CCC(=O)Nc1ccc2c(c1)OC[C@@H](C)N(C(=O)c1ccc(F)cc1)C[C@H](C)[C@H](OC)CN(C)C2=O	nt	0	nt	nt	nt	2
O=C(NCc1ccccn1)c1ccc(Cl)s1	-31	3	3	29	-4	-5
Cc1cc(C(=O)Nc2ccc(Br)cn2)sc1C	-28	16	54*	nt	-5	-6
Cc1ccnc(NC(=O)c2ccc(Br)s2)c1	-25	0	35*	50	nt	2
O=C(Nc1ccccn1)c1ccc(Cl)s1	-18	nt	16	161*	2	-2
COc1cccc(S(=O)(=O)Nc2ccc3c(c2)[C@@H]2C[C@@H](CC(=O)NCc4ccccc4F)O[C@@H](CO)[C@@H]2O3)c1	nt	-10	nt	nt	18[16.7 µM]	0
C[C@@H]1CN([C@H](C)CO)C(=O)c2cccc(NC(=O)C3CC3)c2O[C@H]1CN(C)S(C)(=O)=O	11	5	nt	nt	-8[16.7 µM]	1
CN1c2ccc(-c3ccc(C#N)cc3)cc2[C@@H]2[C@@H](CCN2C(=O)c2cccc(F)c2)[C@H]1CO	-9	0	nt	nt	7[16.7 µM]	0
C[C@@H]1CCCCO[C@@H](CN(C)CC2CCCCC2)[C@H](C)CN([C@@H](C)CO)C(=O)c2cc(NC(=O)Nc3ccc4c(c3)OCO4)ccc2O1	-2	10	nt	nt	-1[16.7 µM]	4
CN(C)c1ccc(C=C2SC(=S)NC2=O)cc1	nt	54*	-1	21	-7	1
Cc1ccnc(NC(=O)Nc2cccc(F)c2)n1	nt	13	80*	28	-6	nt
Cc1ccnc(NC(=O)Nc2cccc(F)c2)c1	-33	-11	nt	nt	-1	-4
O=C(Nc1cccc(F)c1)Nc1ccc(Cl)cn1	-28	32	14	74	2	-6
Cc1ccc(NC(=O)Nc2ccc(Cl)c(Cl)c2)nc1	-31	60*	19	nt	-8	-5
Cc1ccc(NC(=O)Nc2cccc(F)c2)nc1	-3	53*	4	nt	-1	1
Cc1cccc(NC(=O)Nc2cccc(F)c2)n1	-13	68*	nt	20	21	0
CC(C)C#Cc1cnc2c(c1)C(=O)N([C@@H](C)CO)C[C@@H](C)[C@@H](CN(C)C(=O)Cc1ccncc1)O2	-8	1	nt	nt	-3[16.7 µM]	-3
Cc1ccc2nc(NC(=O)/C=C/c3ccc4c(c3)OCO4)sc2c1	-14	nt	-1	-5	-5	3
Cc1cccc(NC(=O)Nc2ccc(C#N)cc2)n1	-19	20	3	-18	nt	-3
Cc1ccc(NC(=O)/C=C/c2ccc3c(c2)OCO3)nc1	nt	nt	30*	?	nt	nt
Cc1ccc(NC(=O)c2cc(F)c(F)cc2Cl)nc1	-28	44*	16	?	-9	0
Cc1cccc(NC(=O)Nc2cccc(C#N)c2)n1	-16	50*	8	44	nt	1
Cc1cc(C)nc(NC(=O)Nc2ccc3c(c2)OCO3)c1	-20	nt	-6	47	7	-4
Cc1ccc(NC(=O)c2ccccc2F)nc1	-13	25	nt	nt	7	4
Cc1ccc(NC(=O)Nc2ccc3c(c2)OCO3)nc1	nt	48*	?	130*	-14	nt
CC(C)NC(=O)Nc1ccc2c(c1)C(=O)N([C@@H](C)CO)C[C@H](C)[C@H](CN(C)Cc1ccc3c(c1)OCO3)O2	-13	-2	nt	nt	0[16.7 µM]	2
C[C@H](CO)N1C[C@H](C)[C@H](CN(C)C(=O)Nc2ccccc2)Oc2c(NC(=O)Nc3ccc(F)cc3)cccc2C1=O	12	5	nt	nt	-3[16.7 µM]	1
C[C@@H]1CN([C@H](C)CO)C(=O)c2cc(NC(=O)C3CCCCC3)ccc2O[C@H]1CN(C)C(=O)Nc1cccc2ccccc12	-4	2	nt	nt	-1[16.7 µM]	-4
COc1cccc(CNC(=O)C[C@H]2CC[C@H](NC(=O)C3CC3)[C@H](CO)O2)c1	-12	5	nt	nt	nt	4
CCOC(=O)c1ccc(CC(=O)c2ccc(O)cc2O)o1	nt	49*	nt	-50	2	nt

MITF act, hit marks shown above
compound	UUG fidelity	esBAF inh	Wnt bcat act	MITF act	miR122 inh	PglD DTNB
O=C(Nc1ccccn1)c1ccc(Cl)s1	-18	nt	16	161*	2	-2
Cc1ccc(NC(=O)Nc2ccc3c(c2)OCO3)nc1	nt	48*	?	130*	-14	nt

Three compounds already listed, arranged by their value in MITF act, smallest number first:
mol | UUG fidelity | esBAF inh | Wnt bcat act | MITF act | miR122 inh | PglD DTNB
Cc1cccc(NC(=O)Nc2cccc(F)c2)n1 | -13 | 68* | nt | 20 | 21 | 0
Cc1cccc(NC(=O)Nc2cccc(C#N)c2)n1 | -16 | 50* | 8 | 44 | nt | 1
Cc1ccc(NC(=O)Nc2ccc3c(c2)OCO3)nc1 | nt | 48* | ? | 130* | -14 | nt

(continued)
compound	UUG fidelity	esBAF inh	Wnt bcat act	MITF act	miR122 inh	PglD DTNB
Cc1ccc(Nc2nc(COC(=O)COc3ccc(C=O)cc3)cs2)cc1	-14	49*	27	50	0	0
C/C=C/c1ccc(OCC(=O)OCc2csc(Nc3ccc(C)cc3)n2)c(OC)c1	nt	nt	-1	36	nt	nt
CC=Cc1ccc2n(c1=O)C[C@H]1[C@H](CO)[C@@H](C(=O)NCC)[C@@H]2N1C(=O)C1CC1 (mixture of isomers)	nt	1	nt	nt	nt	-3
CCC1CCCCN1C(=O)CSc1nnc(-c2ccc(Cl)s2)o1 (stereo not drawn)	-12	1	0	nt	-12	-1
CCC1CCCCN1C(=O)CSc1nnc(-c2ccc(Cl)cc2)o1 (stereo not drawn)	-7	23	1	nt	-10	-3
CCC1CCCCN1C(=O)CSc1nnc(-c2ccco2)o1 (stereo not drawn)	-28	9	47*	47	-18	-2
CCC1CCCCN1C(=O)CSc1nnc(-c2cccc(Cl)c2)o1 (stereo not drawn)	24	50*	19	nt	4	-3
C[C@H]1CN([C@@H](C)CO)S(=O)(=O)c2ccc(Br)cc2O[C@H]1CN(C)S(=O)(=O)c1ccccc1F	-8	-5	-1	nt	179*![16.7 µM]	3
Cc1ccc(-c2ccc3c(c2)O[C@@H](CN(C)Cc2ccc(F)cc2)[C@@H](C)CN([C@@H](C)CO)S3(=O)=O)cc1	21	-4	nt	nt	-4[16.7 µM]	2
C/C=C/c1ccc2c(c1)O[C@H](CN(C)S(=O)(=O)c1ccc(F)cc1)[C@H](C)CN([C@@H](C)CO)S2(=O)=O	nt	-9	nt	nt	11[16.7 µM]	2
COCC#Cc1ccc2c(c1)O[C@H](CN(C)S(=O)(=O)c1ccc(OC)cc1)[C@H](C)CN([C@H](C)CO)S2(=O)=O	nt	6	nt	nt	120*[16.7 µM]	-2
COCC#Cc1ccc2c(c1)O[C@H](CN(C)S(=O)(=O)c1ccc(OC)cc1)[C@@H](C)CN([C@H](C)CO)S2(=O)=O	nt	4	nt	nt	48[16.7 µM]	4
Cc1ccc(-c2ccc3c(c2)O[C@H](CN(C)Cc2ccc(F)cc2)[C@@H](C)CN([C@H](C)CO)S3(=O)=O)cc1	11	-4	nt	nt	98*[16.7 µM]	-2
C/C=C/c1ccc2c(c1)O[C@H](CN(C)S(=O)(=O)c1ccccc1)[C@H](C)CN([C@@H](C)CO)S2(=O)=O	24	-15	nt	nt	268*[16.7 µM]	2
COc1ccc(NC(=O)N[C@H]2C=C[C@H](CC(=O)NC3CCCCC3)O[C@@H]2CO)cc1	1	2	nt	nt	nt	3
